Experimental data published in BindingDB's records for doi:10.1111/cbdd.12319 (University of Massachusetts Boston, 2014).
pIC50: −log10 of the molar value.

Amino acid sequences for entries named in this document (tags omitted). A change or cut given only in a name is not applied to a line headed by its entry.
UniProt O14939: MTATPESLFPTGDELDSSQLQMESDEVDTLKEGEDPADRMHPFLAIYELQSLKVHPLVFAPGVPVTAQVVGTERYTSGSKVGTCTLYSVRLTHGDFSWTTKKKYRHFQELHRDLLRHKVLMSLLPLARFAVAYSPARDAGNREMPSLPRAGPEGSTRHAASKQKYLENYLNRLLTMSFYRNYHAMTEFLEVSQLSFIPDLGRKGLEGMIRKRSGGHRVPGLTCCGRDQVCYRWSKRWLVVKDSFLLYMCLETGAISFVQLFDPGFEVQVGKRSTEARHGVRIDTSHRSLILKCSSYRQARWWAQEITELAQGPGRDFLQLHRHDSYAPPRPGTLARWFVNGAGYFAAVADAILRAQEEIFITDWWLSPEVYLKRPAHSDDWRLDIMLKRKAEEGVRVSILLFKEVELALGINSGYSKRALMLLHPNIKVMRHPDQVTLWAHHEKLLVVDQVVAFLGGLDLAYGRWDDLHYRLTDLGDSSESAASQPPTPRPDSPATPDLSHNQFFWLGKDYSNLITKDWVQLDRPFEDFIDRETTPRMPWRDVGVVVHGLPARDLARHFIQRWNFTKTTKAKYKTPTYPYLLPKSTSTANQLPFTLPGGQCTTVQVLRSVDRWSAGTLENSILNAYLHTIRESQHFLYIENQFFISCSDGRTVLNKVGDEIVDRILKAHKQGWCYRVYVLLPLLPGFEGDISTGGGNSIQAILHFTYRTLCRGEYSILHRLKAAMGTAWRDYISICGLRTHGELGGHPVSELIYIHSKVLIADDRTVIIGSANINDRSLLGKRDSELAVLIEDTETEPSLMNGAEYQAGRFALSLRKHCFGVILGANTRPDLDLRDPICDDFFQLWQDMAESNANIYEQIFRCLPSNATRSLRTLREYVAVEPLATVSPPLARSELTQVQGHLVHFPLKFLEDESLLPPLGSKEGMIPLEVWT

Molecular target: Phospholipase D2 (Homo sapiens, UniProt O14939)
Conditions: 37 °C

Work on `O=C(NCCN1CCC2(CC1)C(=O)NCN2c1ccccc1)c1cnc2ccccc2c1` yielded a pIC50 of 6.35.
